Values quoted from earlier work in patent publication US20240327311A1, “Benzothiazole Derivative as a Urease Inhibitor for Fertilizer Application” (Sabic Agri-Nutrients Company, priority 2021, published 2024).

Protein sequences, listed by entry. Tags and fused reporters are not part of them.
UniProt P07374, whole entry, looked up: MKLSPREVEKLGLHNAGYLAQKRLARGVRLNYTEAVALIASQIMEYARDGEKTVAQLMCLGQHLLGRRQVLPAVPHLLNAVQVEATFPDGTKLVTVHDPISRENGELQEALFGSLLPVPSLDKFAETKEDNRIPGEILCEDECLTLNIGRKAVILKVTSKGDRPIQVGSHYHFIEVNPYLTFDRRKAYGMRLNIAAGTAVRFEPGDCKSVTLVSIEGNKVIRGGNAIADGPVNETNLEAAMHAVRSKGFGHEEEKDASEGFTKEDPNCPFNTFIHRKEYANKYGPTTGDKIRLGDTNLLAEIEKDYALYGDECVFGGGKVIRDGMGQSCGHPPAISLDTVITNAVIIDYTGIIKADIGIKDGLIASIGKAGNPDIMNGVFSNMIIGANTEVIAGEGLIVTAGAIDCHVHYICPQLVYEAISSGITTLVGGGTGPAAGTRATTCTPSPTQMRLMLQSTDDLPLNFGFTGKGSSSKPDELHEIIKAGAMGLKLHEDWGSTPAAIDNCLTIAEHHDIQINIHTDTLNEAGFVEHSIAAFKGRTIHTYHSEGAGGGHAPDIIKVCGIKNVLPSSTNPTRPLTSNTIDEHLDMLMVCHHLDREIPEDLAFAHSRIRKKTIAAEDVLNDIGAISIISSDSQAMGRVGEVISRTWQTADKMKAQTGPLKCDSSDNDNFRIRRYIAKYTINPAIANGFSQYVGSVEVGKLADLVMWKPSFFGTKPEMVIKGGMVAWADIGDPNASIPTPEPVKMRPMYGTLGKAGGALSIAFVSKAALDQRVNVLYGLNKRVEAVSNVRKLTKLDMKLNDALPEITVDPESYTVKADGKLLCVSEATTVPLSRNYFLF

Target: urease (Canavalia ensiformis, UniProt P07374)
Conditions: reported earlier (J. Agric. Food Chem. 2008, 56, 3721); cited from earlier work

In the case of `NP(N)(=O)Nc1nc2ccccc2s1`, the IC50 is given as 2 nM.
